Test results as given in US20090196871A1, “USE OF 4-PYRIDYLMETHYLPHTHALAZINES FOR CANCER TREATMENT” (priority 2001, published 2009).

Test system: metastatic colorectal cancer
Assay: Example 1: combination with oxaplatin/folinic acid/5-fluorouracil chemotherapy in patients
Assay type: in vivo, human
Details: co-administration of 1-(4-chloroanilino)-4-(4-pyridylmethyl)phthalazine
Method: 15 Patients with histologically confirmed metastatic colorectal cancer seven of which had previously received adjuvant chemotherapy are treated with a combination of 1-(4-chloro-anilino)-4-(4-pyridylmethyl)phthalazine and a chemotherapy regimen. The chemotherapy regimen is 85 mg/m^2 of oxaplatin on day 1, 200 mg/m^2 of folinic acid given as a 2 hour infusion on days 1 and 2, and S-fluorouracil administered as a bolus at a dose of 400 mg/m^2 followed by 600 mg/m^2 over 22 hours on days 1 and 2. The chemotherapy regimen is given every 14 days. […] The treatment is well-tolerated. […] Stable diseases are observed in 2 patients, minor responses in 3 patients and partial responses in 8 patients.

O=C1[O][Pt]2([NH][C@@H]3CCCC[C@H]3[NH]2)[O]C1=O [oxaplatin, reference compound]
pharmacokinetics of oxaplatin on co-administration: not altered
